Antibody variant affinities, Ab-14 light chain, assay B

Reference: Li et al. 2023, doi:10.1038/s41467-023-39022-2. File: FLAb, binding data.

Target peptide (SARS-CoV-2 spike, HR2 region): PDVDLGDISGINAS

The variants keep the heavy chain, the linker and the frameworks of Ab-14 (scFv order VH, a (GGGGS)3 linker, VL).
VH: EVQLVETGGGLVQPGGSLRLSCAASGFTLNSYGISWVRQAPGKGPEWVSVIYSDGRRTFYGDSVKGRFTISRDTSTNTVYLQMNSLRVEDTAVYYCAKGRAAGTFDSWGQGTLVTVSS
VL: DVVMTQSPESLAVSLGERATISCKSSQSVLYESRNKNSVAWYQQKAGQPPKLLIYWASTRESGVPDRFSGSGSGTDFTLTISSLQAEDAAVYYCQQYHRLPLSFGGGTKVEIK

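Phage display of a naive human antibody library on the peptide gave the parent. The variants were designed computationally from a first round of random CDR variants and then made and measured. Group labels follow the data file (En: ensemble of fine-tuned language models; GP: Gaussian process model; HC: hill climbing; Gen: genetic algorithm; Gibbs: Gibbs sampling; a sequence that several methods proposed may carry one label only). AlphaSeq pools MATa yeast showing the antibodies with MATalpha yeast showing the peptide. Pairs that bind mate more often; barcode pairs of the diploids are counted by sequencing. The ratio of observed to expected reads was calibrated, replicate by replicate, on BCL2-family standards whose Kd was known from biolayer interferometry. Each pool was mated in six replicate cultures.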

Variants are written as CDR1, CDR2 and CDR3 of the light chain (limits as in the source). Parent: KSSQSVLYESRNKNSVA, WASTRES, QQYHRLPLS. This list holds designs with more than six substitutions. The Kd shown is the geometric mean over detected replicates; a lower Kd is a better binder. "no signal" means that the variant was in the library but no mating with the target was seen in any replicate; the authors take this as a sign of poor binding, and no number exists. The authors averaged sequences with at least three values out of six and counted those with two or fewer as poor binders. As a blank, each scFv also met three strains without target: over all light chain designs, 4% of these pairings were detected, typically at 430 nM and seldom below 38 nM. Values of this round are not directly comparable with the first-round values of the same sequences.

The variant KLSWKSLYGETRWSAIA | NTKVRLA | QQYFRLPIQ [En_Gibbs] gave 14 nM (6 of 6 replicates). For KVQNHSSGFLNDKNAVA | EDTEVAV | QQYVRLPLI [En_Gibbs], the assay gave 710 nM (4 of 6 replicates). With KLSQVTHSESRNKNSIA | EMVTREN | QQYDRLPLS [En_HC] the result was 5.1 nM (6 of 6 replicates). The variant KLSVSWLFESIEHNSVA | ERSTRER | QDYNRLPLS [En_HC] showed 5.8 nM (6 of 6 replicates). The variant KLSISMLHESIHKHSVA | EVRTRES | QQYDRLPLS [En_HC] showed 12 nM (6 of 6 replicates). The variant ALTAHHQGAIEAKNSIA | NAVMLYQ | QQYAQLPLM [En_Gibbs] gave no signal (0 of 6 replicates). With IVSQMMLWGMHLKNSIA | EAQTRVN | QQYDRLPLI [En_Gen] the result was 68 nM (3 of 6 replicates).

The variant MISENYAGNTDNGKSIA | AEILQME | QQYHRLPLA [En_Gibbs] gave 21 nM (2 of 6 replicates). For KVSEFMRGLIQRSDSIA | DNETRGA | QQYDRLPLS [En_Gen], the assay gave 140 nM (3 of 6 replicates). For KLDFLGLYEQRNKNSVA | SASYRES | QQYHRLPLS [GP_Gibbs], the assay gave 550 pM (6 of 6 replicates). With KVSQSVLGEQRAQNSVA | EASKRES | QQYHRLPLS [GP_Gibbs] the result was 920 pM (6 of 6 replicates). The variant KLVQPDDNDNQHMRNVA | DENTLGQ | QQYNRLPLG [En_Gibbs] showed 18 nM (5 of 6 replicates). The variant ALTFPEESVDHHMNSIA | STEKLCM | QQYARLPLS [En_Gibbs] showed 2.1 nM (6 of 6 replicates). The variant QIYQAMHTLSQVKDNVA | DVNERGQ | QQYYRLPLS [En_Gen] showed 2.8 nM (6 of 6 replicates).

For KLGSMVMLEYGNKNSIA | QQSTREE | QQYDRLPLS [En_HC], the assay gave 8.9 nM (6 of 6 replicates). The variant YLVQKADYMDSERNNIA | NGRLRNE | QQYFHLPLT [En_Gibbs] showed 13 nM (6 of 6 replicates). The variant KIGFGTNGEKFQSNSVA | QASTREE | QQYHRLPLS [En_HC] gave 21 nM (5 of 6 replicates). The variant KFQQESNNMNDNQNSVA | DESMVEY | QHYWRLPLT [En_Gibbs] showed no signal (0 of 6 replicates). With KIQMFLGTLMEQINSIA | NSEVIVQ | QSYFRLPLS [En_Gibbs] the result was no signal (0 of 6 replicates). The variant NLTTGYRQGALNTDNVA | HGNMRCA | QQYYRLPLS [En_Gibbs] gave 1.1 nM (6 of 6 replicates). With KVYWGVDYGDRNKNSVA | HASQRES | QQYHRLPLS [GP_Gibbs] the result was 650 pM (6 of 6 replicates).

The variant KLSQSMEYESRNSKSVA | HASTRVS | QQYHRLPLS [GP_Gibbs] gave 950 pM (6 of 6 replicates). With KVFISELGESRNKMSVA | DASTRES | QQYHRLPLS [GP_Gibbs] the result was 10 nM (6 of 6 replicates). With IVSQLMLWGWHAKNSIA | EAQTRLN | QQYDRLPLM [En_Gen] the result was 59 nM (1 of 6 replicates). The variant KLSLFYRVETIQKNSVA | DNSTRES | QDYDRLPLS [En_HC] gave no signal (0 of 6 replicates). The variant HISQSFMMEQVWRNNIA | HQSTREQ | QQYDRLPFS [En_HC] showed 5.2 nM (6 of 6 replicates). The variant MISQLYNMGQFAINSVA | QASVRNE | QQYDRLPLM [En_Gen] showed 35 nM (5 of 6 replicates). The variant HLEQSEEYESRMKNSVA | NASTRCS | QQYHRLPLS [GP_Gibbs] gave 930 pM (6 of 6 replicates).

The variant KLVGSWLYESRNKNSVA | HASQRCS | QQYHRLPLS [GP_Gibbs] gave 3.9 nM (6 of 6 replicates). For MISQLQNMGTFAINSVA | QASLRNE | QQYDRLPLI [En_Gen], the assay gave 35 nM (5 of 6 replicates). The variant KMEMDFDGNDVNRNSIA | SDEAVTR | QHYARLPLS [En_Gibbs] gave no signal (0 of 6 replicates). With KLPQEVWYQSRMKNSVA | DASTREQ | QQYHRLPLS [GP_Gibbs] the result was 1.2 nM (6 of 6 replicates). With TIGEVMHYESRNKNSVA | QTSTREE | QDYHRLPLS [En_HC] the result was 1.9 nM (6 of 6 replicates). For AFTNSIFYGQRDDNSIA | HADELVK | QQYFRFPLA [En_Gibbs], the assay gave 13 nM (1 of 6 replicates). The variant KISQMAWYESTWWNAIA | QTSTREE | QQYHRLPLS [En_HC] showed 5.7 nM (6 of 6 replicates).

The variant KISSLYNMTFEASNNVA | EMVTREK | QQYNRLPLS [En_Gen] gave no signal (0 of 6 replicates). With MLGDVAHGLSRKENSVA | DNDTRED | QQYDRLPLS [En_Gen] the result was 89 nM (6 of 6 replicates). With HFAHPWQSGYESKQNVA | NASTVMT | QHYNRLPLS [En_Gibbs] the result was 4.3 nM (6 of 6 replicates). The variant HITMGMYVSGRYKSNIA | QAETRMK | QQYDRLPLM [En_Gen] showed 4.3 nM (6 of 6 replicates). The variant SFPSEMDQQQTQVNSVA | GEQHTAR | QQYGRLPLS [En_Gibbs] showed 150 nM (6 of 6 replicates). With KIMQQLNYEQFNVSNVA | GQETRER | QSYHRLPLS [En_HC] the result was 90 nM (6 of 6 replicates). For TISQMSFIESKNRNNVA | EMTTREN | QDYDRLPLS [En_HC], the assay gave 1.8 nM (6 of 6 replicates).

The variant KVDMGELPNGFNRSSIA | QAEVRAP | QQYWQLPLC [En_Gibbs] showed 1.7 nM (6 of 6 replicates). The variant KLQGAELGESRNKNSVA | SADTRES | QQYHRLPLS [GP_Gibbs] gave 1.3 nM (6 of 6 replicates). For KAQQSWGYESRNKWSVA | NASTREK | QQYHRLPLS [GP_Gibbs], the assay gave 1.4 nM (6 of 6 replicates). The variant HMSMLTLQGMRHTNSVA | QMTTRVN | QQYDRLPLV [En_Gen] showed 9.2 nM (6 of 6 replicates). With QIYQAMHTLSQNKDNVA | DVNERGQ | QQYYRLPLS [En_Gen] the result was 400 pM (6 of 6 replicates). The variant KIGGVTNGISRSKNSVA | EQSTRED | QQYDRLPLQ [En_HC] gave 3.8 nM (3 of 6 replicates). The variant KLMGSMMYEQRMKNSVA | QASTRMS | QQYHRLPLS [GP_Gibbs] gave 3.6 nM (6 of 6 replicates).

With NVRDSLGYEQNVGSAVA | EASQVED | QQYYTLPLA [En_Gibbs] the result was 6.6 nM (6 of 6 replicates).